Assay results reported in ChEMBL document CHEMBL1149147, “NR2B-selective N-methyl-D-aspartate antagonists: synthesis and evaluation of 5-substituted benzimidazoles” (J Med Chem, 2004).

Amino acid sequences for entries named in this document (tags omitted).
UniProt Q13224, whole entry: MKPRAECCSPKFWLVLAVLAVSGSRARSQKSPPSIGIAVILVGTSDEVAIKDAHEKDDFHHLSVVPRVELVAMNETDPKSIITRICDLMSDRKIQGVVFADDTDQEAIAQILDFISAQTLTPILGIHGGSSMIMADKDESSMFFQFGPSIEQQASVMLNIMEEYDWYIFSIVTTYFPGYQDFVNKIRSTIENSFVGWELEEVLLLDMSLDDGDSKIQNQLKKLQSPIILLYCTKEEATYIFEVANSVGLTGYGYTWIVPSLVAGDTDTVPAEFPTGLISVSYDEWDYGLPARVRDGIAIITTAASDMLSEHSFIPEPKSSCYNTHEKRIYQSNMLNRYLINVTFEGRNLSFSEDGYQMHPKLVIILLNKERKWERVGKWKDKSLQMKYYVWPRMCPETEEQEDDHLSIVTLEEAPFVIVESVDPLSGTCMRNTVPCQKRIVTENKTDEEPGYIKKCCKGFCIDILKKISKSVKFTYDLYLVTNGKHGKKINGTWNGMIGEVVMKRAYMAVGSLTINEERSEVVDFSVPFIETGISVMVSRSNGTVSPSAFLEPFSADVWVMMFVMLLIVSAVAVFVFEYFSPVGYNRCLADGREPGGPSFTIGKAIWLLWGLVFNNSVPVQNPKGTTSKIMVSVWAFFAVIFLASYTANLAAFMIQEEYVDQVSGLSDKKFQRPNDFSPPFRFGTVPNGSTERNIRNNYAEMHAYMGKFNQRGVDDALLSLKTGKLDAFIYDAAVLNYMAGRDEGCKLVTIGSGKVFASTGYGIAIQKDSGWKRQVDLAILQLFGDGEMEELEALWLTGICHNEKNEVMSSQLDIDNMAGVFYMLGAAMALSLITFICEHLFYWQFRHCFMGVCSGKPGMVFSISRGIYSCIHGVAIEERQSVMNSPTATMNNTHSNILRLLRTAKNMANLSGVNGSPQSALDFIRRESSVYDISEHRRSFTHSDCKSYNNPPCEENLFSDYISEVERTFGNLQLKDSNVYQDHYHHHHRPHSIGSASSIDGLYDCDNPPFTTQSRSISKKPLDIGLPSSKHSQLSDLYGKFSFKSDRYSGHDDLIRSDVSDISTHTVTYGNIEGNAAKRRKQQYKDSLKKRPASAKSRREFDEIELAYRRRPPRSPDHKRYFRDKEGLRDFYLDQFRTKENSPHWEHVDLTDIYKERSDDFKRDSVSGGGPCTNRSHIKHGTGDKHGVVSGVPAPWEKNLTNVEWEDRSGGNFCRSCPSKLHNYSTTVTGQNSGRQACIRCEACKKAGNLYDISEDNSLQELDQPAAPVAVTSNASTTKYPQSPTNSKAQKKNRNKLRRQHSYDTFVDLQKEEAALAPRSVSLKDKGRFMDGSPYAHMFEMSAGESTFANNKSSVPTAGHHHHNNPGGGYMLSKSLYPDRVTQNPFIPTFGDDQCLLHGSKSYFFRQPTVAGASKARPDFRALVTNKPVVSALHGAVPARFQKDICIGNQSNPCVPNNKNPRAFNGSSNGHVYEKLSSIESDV

Target: Glutamate NMDA receptor; GRIN1/GRIN2B (Homo sapiens, UniProt Q05586+Q13224)
Assay: Compound was evaluated for in vitro inhibition of [3H][(E)-N-(2-methoxybenzyl)cinnamamidine binding to human NR1a/NR2B receptors expressed in LtK-cells
Assay type: cell-based

Compound Oc1ccc2nc(CN3CCC(Cc4ccccc4)CC3)[nH]c2c1 has a Ki of 1.5 nM.
